Data from patent US11129827B2 (priority 2017, dated 2021).

Protein sequences, listed by entry. Tags and fused reporters are not part of them.
UniProt O00519, whole entry, looked up: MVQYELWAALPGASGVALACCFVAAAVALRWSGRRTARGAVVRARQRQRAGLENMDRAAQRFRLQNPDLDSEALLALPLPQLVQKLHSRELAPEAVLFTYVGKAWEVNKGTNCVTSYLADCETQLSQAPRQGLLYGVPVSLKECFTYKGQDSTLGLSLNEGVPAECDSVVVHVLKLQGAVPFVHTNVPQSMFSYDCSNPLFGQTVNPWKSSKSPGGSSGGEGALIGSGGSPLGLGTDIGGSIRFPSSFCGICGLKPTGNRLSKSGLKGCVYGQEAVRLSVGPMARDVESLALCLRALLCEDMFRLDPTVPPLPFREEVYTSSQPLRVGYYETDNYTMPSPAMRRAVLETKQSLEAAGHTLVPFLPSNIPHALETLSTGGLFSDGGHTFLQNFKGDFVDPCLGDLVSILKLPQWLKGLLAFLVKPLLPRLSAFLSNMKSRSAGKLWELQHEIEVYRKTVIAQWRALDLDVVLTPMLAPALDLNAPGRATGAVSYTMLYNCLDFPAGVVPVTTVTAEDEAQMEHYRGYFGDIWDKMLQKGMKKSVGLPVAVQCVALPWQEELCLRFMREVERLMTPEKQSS
UniProt Q99685, whole entry, looked up: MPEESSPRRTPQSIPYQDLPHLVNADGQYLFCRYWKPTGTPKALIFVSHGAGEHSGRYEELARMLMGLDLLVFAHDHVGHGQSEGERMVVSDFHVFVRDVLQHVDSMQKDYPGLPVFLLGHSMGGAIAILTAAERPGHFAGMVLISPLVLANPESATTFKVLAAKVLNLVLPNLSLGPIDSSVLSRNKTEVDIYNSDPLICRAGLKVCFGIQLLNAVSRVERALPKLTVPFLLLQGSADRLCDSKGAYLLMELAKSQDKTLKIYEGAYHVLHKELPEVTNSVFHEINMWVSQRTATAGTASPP
UniProt O35678, whole entry, looked up: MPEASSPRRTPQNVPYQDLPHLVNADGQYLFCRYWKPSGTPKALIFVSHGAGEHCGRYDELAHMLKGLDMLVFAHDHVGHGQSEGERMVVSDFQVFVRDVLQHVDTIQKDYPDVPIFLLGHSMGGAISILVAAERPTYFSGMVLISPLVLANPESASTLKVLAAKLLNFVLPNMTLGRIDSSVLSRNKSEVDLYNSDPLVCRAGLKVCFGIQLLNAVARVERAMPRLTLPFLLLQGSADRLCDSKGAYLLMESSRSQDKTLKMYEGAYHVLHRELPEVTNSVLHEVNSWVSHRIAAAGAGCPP
UniProt O08914, whole entry, looked up: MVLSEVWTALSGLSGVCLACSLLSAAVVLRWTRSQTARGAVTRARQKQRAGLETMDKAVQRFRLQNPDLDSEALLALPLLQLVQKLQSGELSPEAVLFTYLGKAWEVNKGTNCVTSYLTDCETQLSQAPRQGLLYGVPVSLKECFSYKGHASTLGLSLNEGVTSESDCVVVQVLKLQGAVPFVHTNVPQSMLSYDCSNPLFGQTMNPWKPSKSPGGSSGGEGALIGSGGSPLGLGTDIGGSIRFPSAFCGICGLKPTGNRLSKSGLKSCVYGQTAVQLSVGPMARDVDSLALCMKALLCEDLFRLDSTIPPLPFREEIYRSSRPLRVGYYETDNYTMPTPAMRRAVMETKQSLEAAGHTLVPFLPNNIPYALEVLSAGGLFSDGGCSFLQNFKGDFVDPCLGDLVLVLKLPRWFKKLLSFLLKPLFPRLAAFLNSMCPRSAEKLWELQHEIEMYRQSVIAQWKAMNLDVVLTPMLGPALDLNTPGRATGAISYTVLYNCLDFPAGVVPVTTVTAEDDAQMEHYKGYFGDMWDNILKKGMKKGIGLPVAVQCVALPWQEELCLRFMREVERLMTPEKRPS

Tests used:
[1] = biological target: FAAH (Homo sapiens (Human), UniProt O00519); conditions: for FAAH (human) % inh. 1 μM / IC50: human prefrontal cortex or cell membrane fractions; for IC50: read-out: FAAH (human) IC50
[2] = biological target: MAGL (Homo sapiens (Human), UniProt Q99685); conditions: for MAGL (human) % inh. 1 μM / IC50: human prefrontal cortex or cell membrane fractions; for IC50: read-out: MAGL (human) IC50; for MAGL (human) % inh. (10 μM): 10 μM (stated in cell instead of 1 μM); for MAGL (human) % inh. (50 μM): 50 μM (stated in cell instead of 1 μM)
[3] = biological target: MAGL (Mus musculus (Mouse), UniProt O35678); experiment: Mouse brain proteomes from inhibitor treated mice (oral gavage, ABPP analysis); type: in vivo; conditions: 5 mg/kg oral gavage, C57Bl/6J mouse brain, 4 h following administration
[4] = biological target: FAAH (Mus musculus (Mouse), UniProt O08914); experiment: as above; type: in vivo; conditions: 5 mg/kg oral gavage, C57Bl/6J mouse brain, 4 h following administration

Compound | FAAH (human) % inh. 1 μM [1] | MAGL (human) % inh. 1 μM [2] | IC50 [1] [nM] | IC50 [2] [nM] | further results
NC(=O)c1cncc(OC(=O)N2CCN(Cc3ccc(Cl)c(C(N)=O)c3)CC2)c1 | A (% inhibition is greater than or equal to 75%) | C (% inhibition is greater than or equal to 25% and less than 50%) | – | – | –
Cc1cc(OC(C)C)ccc1CN1CCN(C(=O)Oc2cncc(F)c2)CC1 | A (% inhibition is greater than or equal to 75%) | A (% inhibition is greater than or equal to 75%) | < 100 | 100 to 1000 | –
C[C@@H]1CN(Cc2cccc(OC(F)(F)F)c2)CCN1C(=O)Oc1cncc(N)c1 | A (% inhibition is greater than or equal to 75%) | D (% inhibition is greater than or equal to 0% and less than 25%) | – | – | –
C[C@@H]1CN(Cc2ccc(Cl)c(C(N)=O)c2)CCN1C(=O)Oc1cncc(C(N)=O)c1 | A (% inhibition is greater than or equal to 75%) | – | – | – | MAGL (human) % inh. (10 μM) [2]: C (10 μM) (% inhibition is greater than or equal to 25% and less than 50%)
CC(C)Oc1cc(CN2CCN(C(=O)Oc3cncc(N)c3)CC2)ccc1Cl | A (% inhibition is greater than or equal to 75%) | A (% inhibition is greater than or equal to 75%) | < 100 | 100 to 1000 | MAGL (mouse) % inh. 5 mg/kg [3]: D (% inhibition is greater than or equal to 0% and less than 25%); FAAH (mouse) % inh. 5 mg/kg [4]: A (% inhibition is greater than or equal to 75%)
C[C@@H]1CN(Cc2cc(F)cc(C(F)(F)F)c2)CCN1C(=O)Oc1cncc(N)c1 | A (% inhibition is greater than or equal to 75%) | – | – | – | MAGL (human) % inh. (50 μM) [2]: C (50 μM) (% inhibition is greater than or equal to 25% and less than 50%)
Cc1c(CN2CCN(C(=O)Oc3cncc(N)c3)[C@H](C)C2)cccc1C(F)(F)F | A (% inhibition is greater than or equal to 75%) | D (% inhibition is greater than or equal to 0% and less than 25%) | – | – | –
C[C@@H]1CN(Cc2cnccc2C(F)(F)F)CCN1C(=O)Oc1cncc(C#N)c1 | A (% inhibition is greater than or equal to 75%) | A (% inhibition is greater than or equal to 75%) | < 100 | 1000 to 10000 | MAGL (mouse) % inh. 5 mg/kg [3]: D (% inhibition is greater than or equal to 0% and less than 25%); FAAH (mouse) % inh. 5 mg/kg [4]: A (% inhibition is greater than or equal to 75%)
O=C(Oc1cncc(F)c1)N1CCN(Cc2cc(Cl)ccc2C(F)(F)F)CC1 | A (% inhibition is greater than or equal to 75%) | A (% inhibition is greater than or equal to 75%) | < 100 | < 100 | –
Cc1c(C#N)cncc1OC(=O)N1CCN(Cc2cc(Cl)ccc2C(F)(F)F)CC1 | A (% inhibition is greater than or equal to 75%) | A (% inhibition is greater than or equal to 75%) | < 100 | < 100 | –
NC(=O)c1cc(Cl)cc(CN2CCN(C(=O)Oc3cncc(C(N)=O)c3)CC2)c1 | A (% inhibition is greater than or equal to 75%) | A (% inhibition is greater than or equal to 75%) | 100 to 1000 | 1000 to 10000 | MAGL (mouse) % inh. 5 mg/kg [3]: D (% inhibition is greater than or equal to 0% and less than 25%); FAAH (mouse) % inh. 5 mg/kg [4]: D (% inhibition is greater than or equal to 0% and less than 25%)
NC(=O)c1cncc(OC(=O)N2CCN(Cc3cnccc3C(F)(F)F)CC2)c1 | A (% inhibition is greater than or equal to 75%) | – | – | – | MAGL (human) % inh. (10 μM) [2]: A (10 μM) (% inhibition is greater than or equal to 75%)
O=C(Oc1cncc(F)c1)N1CCN(Cc2ccc3c(c2)OC(F)(F)O3)CC1 | A (% inhibition is greater than or equal to 75%) | A (% inhibition is greater than or equal to 75%) | – | – | –
C[C@@H]1CN(Cc2cc(F)cc(C(F)(F)F)c2)CCN1C(=O)Oc1cncc(C#N)c1 | A (% inhibition is greater than or equal to 75%) | A (% inhibition is greater than or equal to 75%) | < 100 | < 100 | –
C[C@@H]1CN(Cc2cccc(OC(F)(F)F)c2)CCN1C(=O)Oc1cncc(F)c1 | A (% inhibition is greater than or equal to 75%) | – | < 100 | 1000 to 10000 | MAGL (human) % inh. (50 μM) [2]: A (50 μM) (% inhibition is greater than or equal to 75%)
C[C@@H]1CN(Cc2cnccc2C(F)(F)F)CCN1C(=O)Oc1cncc(F)c1 | A (% inhibition is greater than or equal to 75%) | – | – | – | MAGL (human) % inh. (10 μM) [2]: B (10 μM) (% inhibition is greater than or equal to 50% and less than 75%)
CC(C)Oc1cc(CN2CCN(C(=O)Oc3cncc(N)c3)[C@@H](C)C2)ccc1Cl | – | A (% inhibition is greater than or equal to 75%) | – | – | FAAH (human) % inh. (10 μM) ([1]; 10 μM (stated in cell instead of 1 μM)): A (10 μM) (% inhibition is greater than or equal to 75%)
CC(C)Oc1cc(CN2CCN(C(=O)Oc3cncc(N)c3)[C@H](C)C2)ccc1Cl | A (% inhibition is greater than or equal to 75%) | C (% inhibition is greater than or equal to 25% and less than 50%) | < 100 | 1000 to 10000 | –
CCOc1cc(CN2CCN(C(=O)Oc3cncc(F)c3)CC2)ccc1Cl | A (% inhibition is greater than or equal to 75%) | A (% inhibition is greater than or equal to 75%) | – | – | –
C[C@@H]1CN(Cc2cc(F)cc(C(F)(F)F)c2)CCN1C(=O)Oc1cncc(F)c1 | A (% inhibition is greater than or equal to 75%) | – | < 100 | 100 to 1000 | MAGL (human) % inh. (10 μM) [2]: A (10 μM) (% inhibition is greater than or equal to 75%)
Cc1c(F)cncc1OC(=O)N1CCN(Cc2cc(Cl)ccc2C(F)(F)F)CC1 | A (% inhibition is greater than or equal to 75%) | A (% inhibition is greater than or equal to 75%) | < 100 | 1000 to 10000 | –
Cc1c(CN2CCN(C(=O)Oc3cncc(C(N)=O)c3)CC2)cccc1C(F)(F)F | A (% inhibition is greater than or equal to 75%) | A (% inhibition is greater than or equal to 75%) | – | – | –
N#Cc1cncc(OC(=O)N2CCN(Cc3cc(Cl)ccc3C(F)(F)F)CC2)c1 | A (% inhibition is greater than or equal to 75%) | A (% inhibition is greater than or equal to 75%) | < 100 | < 100 | –
C[C@@H]1CN(Cc2cc(Cl)ccc2C(F)(F)F)CCN1C(=O)Oc1cncc(F)c1 | A (% inhibition is greater than or equal to 75%) | – | – | – | MAGL (human) % inh. (10 μM) [2]: A (10 μM) (% inhibition is greater than or equal to 75%)
O=C(Oc1cncc(F)c1)N1CCN(Cc2cnccc2C(F)(F)F)CC1 | A (% inhibition is greater than or equal to 75%) | A (% inhibition is greater than or equal to 75%) | < 100 | 100 to 1000 | –
C[C@@H]1CN(Cc2cccc(OC(F)(F)F)c2)CCN1C(=O)Oc1cncc(C#N)c1 | A (% inhibition is greater than or equal to 75%) | A (% inhibition is greater than or equal to 75%) | < 100 | < 100 | –
C[C@@H]1CN(Cc2cc(Cl)ccc2C(F)(F)F)CCN1C(=O)Oc1cncc(C#N)c1 | A (% inhibition is greater than or equal to 75%) | A (% inhibition is greater than or equal to 75%) | < 100 | 100 to 1000 | –
COc1ccc(CN2CCN(C(=O)Oc3cncc(F)c3)CC2)cc1C(F)(F)F | A (% inhibition is greater than or equal to 75%) | A (% inhibition is greater than or equal to 75%) | < 100 | < 100 | –
C[C@H]1CN(Cc2ccc(Cl)c(C(N)=O)c2)CCN1C(=O)Oc1cncc(C(N)=O)c1 | – | B (% inhibition is greater than or equal to 50% and less than 75%) | – | – | FAAH (human) % inh. (50 μM) ([1]; 50 μM (stated in cell instead of 1 μM)): A (50 μM) (% inhibition is greater than or equal to 75%)
Cc1c(CN2CCN(C(=O)Oc3cncc(C#N)c3)[C@H](C)C2)cccc1C(F)(F)F | A (% inhibition is greater than or equal to 75%) | A (% inhibition is greater than or equal to 75%) | < 100 | < 100 | –
